# Measured values taken from paper PMC3517478 (BMC Neurology, 2012).
# Molecular target: T1, human α1R271Q-GlyR expressed in HEK 293 cells (Homo sapiens, UniProt P23415, R299Q)
# T1 sequence (P23415 29-457 R299Q): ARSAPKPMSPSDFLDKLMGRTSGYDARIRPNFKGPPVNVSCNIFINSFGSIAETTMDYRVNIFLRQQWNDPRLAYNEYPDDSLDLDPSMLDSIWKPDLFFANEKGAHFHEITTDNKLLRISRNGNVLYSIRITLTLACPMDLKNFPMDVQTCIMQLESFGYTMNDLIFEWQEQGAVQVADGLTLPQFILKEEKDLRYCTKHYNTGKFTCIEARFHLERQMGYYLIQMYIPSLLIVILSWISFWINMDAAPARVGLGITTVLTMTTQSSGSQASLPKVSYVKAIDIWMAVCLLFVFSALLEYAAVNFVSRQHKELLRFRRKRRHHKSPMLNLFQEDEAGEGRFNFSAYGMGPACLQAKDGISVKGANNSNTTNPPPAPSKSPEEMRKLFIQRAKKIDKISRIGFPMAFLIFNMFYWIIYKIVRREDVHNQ
# Details: R271Q; saturating glycine 300 mM
# From the text: Human α1-, α1R271Q-, α1R271L-, α1R271K and α1S267I-GlyR subunits were transiently transfected into human embryonic kidney cells (HEK 293, ATCC, Manassas, USA). The wild type α1-GlyR -cDNA was cloned in pCIS2 (Invitrogen, San Diego, USA) vector and provided by Prof. Heinrich Betz (Max-Planck-Institut für Hirnforschung, Frankfurt am Main, Germany). For the plasmid cDNA of the mutated α1R271Q-, α1R271L-, α1R271K- and α1S267I-GlyR the eukaryotic expression vector pcDNA1amp (Invitrogen, San Diego, USA), under the control of cytomegalovirus promoter, was used. For site-directed mutagenesis, single stranded template cDNA was synthesized from M13 origin of replication and the mutations of arginine residue (R) at position 271 to glutamine (R271Q), leucine (R271L) or lysine (R271K) and mutation of serine residue (S) at position 267 to isoleucine (S267I) were generated using standard procedures. […]
# Whole-cell experiments were performed at a holding potential of −30 mV with a mean seal resistance of 1 GΩ. […] We calculated flow rate of background solution through the chamber with 3,4 ml/min corresponding to 4% of maximal pump rate. With regard to the chamber volume of 100 μl the exchange solution time within the chamber was assessed to approximately […], dependent on cell size accordingly. […]
smiles,measurement,value
NCC(=O)O [glycine],Mean current amplitude ± SEM,123±19 pA
